# How the values were obtained:
# [1] = system: CYP19a1 proximal promoter; assay: CYP19a1 proximal promoter luciferase reporter in granulosa cells; format: cell-based; details: FSH alone vs no FSH
# Excerpt: To determine whether the effect of SIK inhibition on Cyp19a1 mRNA levels was mediated by an increase in the expression of the Cyp19a1 gene, granulosa cells were infected with a reporter controlled by the CYP19a1 proximal promoter. Luciferase activity was detectable but low in the absence of FSH while FSH stimulated reporter activity by 20-fold. […] Treatment with the SIK inhibitor alone increased Cyp19a1 promoter activity.
# [2] = system: human granulosa cells; assay: CYP19A1 protein (western blot) in granulosa cells of IVF patients with different etiologies; format: cell-based; details: FSH alone
# Method: Primary granulosa cells were obtained from patients with normal ovarian function (left panel) or patients diagnosed with polycystic ovarian syndrome or anovulation (right panel). Cells were treated with vehicle, FSH, FSH plus HG-9-91-01 (HG), or HG alone for 48 hours. CYP19a1 and β-actin (BACT) protein levels were measured 48 hours after the initiation of treatment by western blot. The intensity of the CYP19a1 and BACT bands was quantified, and the data expressed as a ratio between aromatase and BACT. Different letters represent significant differences, one-way ANOVA followed by Tukey test, p<0.05, (n=5).
# Human Granulosa Cells. Human cells were collected from the follicular aspirates of women undergoing in vitro fertilization treatment at the University of Illinois at Chicago Fertility Center, under Institute Review Board approval. Informed consents were obtained from all women. In a subset of patients, additional information was collected to compare the effect of SIK inhibition in patients with different etiologies. Cells were transported immediately to the laboratory where they were dispersed by hyaluronidase digestion (8 IU/μl) and then centrifuged at 500×g for 5 minutes. Cells were incubated at room temperature in red blood cell lysis buffer for 2 minutes to eliminate contaminating erythrocytes. The cells were again centrifuged at 500×g for 5 minutes and suspended in 0.5 ml of serum-free DMEM/F12-0.25% BSA medium containing antibiotics. To investigate mRNA expression, cells were plated at a density of 30000 cells/well in 24-well plates coated with reconstituted basement membrane sold under the tradename Matrigel® (DB Biosciences). To investigate protein expression, cells were plated at a density of 200000 cells/well in 6-well plates coated with reconstituted basement membrane sold under the tradename Matrigel® (DB Biosciences). […] Each data point reflects a result obtained from individual patients. Cells from each patient were cultured separately.
# Immunoblot Analysis. Cells were harvested in ice-cold RIPA lysis buffer supplemented with protease inhibitors (Sigma). […]
substance,measurement,setting,value
FSH: human recombinant FSH (Serono),"CYP19a1 promoter reporter (luciferase) activity, stimulation",[1],20 fold
same,CYP19A1 levels,[2]; patient with anovulation,stimulated CYP19A1 mRNA levels marginally
same,CYP19A1 stimulation,[2]; patients with PCOS,unable to stimulate CYP19A1 in two of the three patients with PCOS
same,CYP19A1 protein levels,[2]; patients with normal ovarian function,strongly increased CYP19A1 protein levels
